Our source for the CLint scaled and IC50 values is PMC4904262 (ACS Medicinal Chemistry Letters, 2016).

Protein sequences, listed by entry. Tags and fused reporters are not part of them.
UniProt Q06278, whole entry: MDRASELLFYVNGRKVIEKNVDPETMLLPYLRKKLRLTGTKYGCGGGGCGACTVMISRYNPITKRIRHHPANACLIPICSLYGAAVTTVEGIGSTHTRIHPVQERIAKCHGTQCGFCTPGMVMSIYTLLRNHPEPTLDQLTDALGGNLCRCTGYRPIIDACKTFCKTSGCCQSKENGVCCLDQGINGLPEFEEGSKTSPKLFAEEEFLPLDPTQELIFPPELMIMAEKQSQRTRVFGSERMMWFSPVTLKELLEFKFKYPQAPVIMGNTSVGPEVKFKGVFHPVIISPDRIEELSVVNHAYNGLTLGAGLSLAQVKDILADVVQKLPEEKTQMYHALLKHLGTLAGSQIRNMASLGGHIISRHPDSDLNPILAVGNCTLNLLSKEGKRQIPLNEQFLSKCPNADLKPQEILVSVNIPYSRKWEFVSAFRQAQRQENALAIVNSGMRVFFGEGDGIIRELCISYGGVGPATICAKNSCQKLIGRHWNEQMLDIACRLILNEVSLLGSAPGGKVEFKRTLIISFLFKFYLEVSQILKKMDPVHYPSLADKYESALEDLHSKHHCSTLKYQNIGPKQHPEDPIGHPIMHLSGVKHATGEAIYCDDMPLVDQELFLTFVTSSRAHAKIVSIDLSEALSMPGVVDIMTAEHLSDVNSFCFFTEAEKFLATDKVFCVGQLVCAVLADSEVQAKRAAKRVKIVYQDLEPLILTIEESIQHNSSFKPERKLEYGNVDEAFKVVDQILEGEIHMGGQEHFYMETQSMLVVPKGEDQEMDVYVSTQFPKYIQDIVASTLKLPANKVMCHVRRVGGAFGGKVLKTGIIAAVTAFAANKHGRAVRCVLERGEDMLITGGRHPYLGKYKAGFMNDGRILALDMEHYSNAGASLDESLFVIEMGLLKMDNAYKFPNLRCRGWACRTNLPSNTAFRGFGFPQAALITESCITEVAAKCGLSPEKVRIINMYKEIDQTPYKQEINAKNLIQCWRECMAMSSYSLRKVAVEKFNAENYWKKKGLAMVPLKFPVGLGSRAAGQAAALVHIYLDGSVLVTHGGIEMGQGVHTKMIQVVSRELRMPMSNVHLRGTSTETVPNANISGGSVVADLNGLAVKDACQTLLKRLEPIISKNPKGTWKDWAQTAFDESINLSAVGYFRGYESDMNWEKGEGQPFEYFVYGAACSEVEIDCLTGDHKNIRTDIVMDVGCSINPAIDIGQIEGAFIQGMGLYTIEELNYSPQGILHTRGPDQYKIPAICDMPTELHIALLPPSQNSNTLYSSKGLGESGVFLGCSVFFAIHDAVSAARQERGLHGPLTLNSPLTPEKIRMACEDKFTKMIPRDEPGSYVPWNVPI

One data set concerns the target aldehyde oxidase (Homo sapiens, UniProt Q06278).

`Cc1ncc(-c2ccc(-c3cnn(C)c3)cc2)c2nc(C(N)=O)ccc12`: the CLint scaled at aldehyde oxidase amounted to 9 mL/min/kg. This compound came in with an IC50 in the data set with WNT signaling of 273 nM. In the data set on WNT signaling, `COC1CN(C(=O)c2ccc3c(C(F)F)ncc(-c4ccc(-c5cnn(C)c5)cc4)c3n2)C1` came in with an IC50 of 2430 nM.
